Patent EP4847017A1, “FORMULATION COMPRISING N,N-DIMETHYLBIGUANIDE, PHARMACEUTICAL COMBINATION COMPRISING N,N-DIMETHYLBIGUANIDE AND DRUG, COMPOSITION, KIT, USE THEREOF, AND METHOD FOR PREPARING SAME” (dated 2026)

Key:
4T1 breast cancer cells = experiment: Breast cancer transplanted tumor, R with methylene blue (Example 11.1); conditions: day when RTV exceeded 150%; intratumoral on the 1st and 3rd day; solution II given 20 minutes before solution I
leg muscle tissue = experiment: Local stimulation scoring after injection into leg muscle (Example 10.1, Series I); conditions: 24 hours after one injection into right hind leg muscle; local stimulation scoring 0-4 points, mean score
[1] = system: 70% mouse hepatocellular carcinoma cells H22 and 30% mouse fibroblast cells (3T3); experiment: Hepatocellular carcinoma containing an unfavorable microenvironment; conditions: day 15
[2] = system: human liver cancer drug-resistant cells Bel-7409/5-Fu; experiment: Pathological analysis (HE staining) of drug-resistant liver cancer tumors 1 hour after intratumoral injection
[3] = system: mouse hepatoma cells (H22); experiment: Hepatoma after discontinuation of 5-Fu (R or R' coadministered with B = 5-Fu); conditions: 15th day; after 0.2% 5-Fu i.p. for 4 days; once a day for 4 consecutive days; group T intraperitoneal; group C also 1.3% R' intraperitoneally
[4] = system: human colorectal cancer cell Fu-resistant strain sw620/Fu; experiment: 5-Fu-resistant colorectal cancer transplanted tumor, R with 5-Fu
[5] = system: human liver cancer drug-resistant cells Bel-7409/5-Fu; experiment: Drug-resistant liver cancer subcutaneous transplantation tumor, tumor weight and inhibition; conditions: 15th day; once a day for 3 consecutive days, intratumoral; groups C (0.5% R) and G ([…] R) also got 1.3% R' intraperitoneally
[6] = system: tyrosine kinase inhibitors (TKIs) resistant lung cancer; experiment: PDX of osimertinib-resistant lung cancer, R with IFO
[7] = system: human pancreatic cancer cell line PANC-1; experiment: IFO-insensitive pancreatic cancer transplanted tumor, R with IFO
[8] = system: human breast cancer cell line MCF-7/DOX; experiment: DOX-resistant breast cancer transplanted tumor, R with DOX
[9] = system: gefitinib resistant human lung adenocarcinoma cell line PC-9/GR; experiment: GR-resistant lung adenocarcinoma transplanted tumor, R with GR
[10] = system: human lung cancer resistant to tyrosine kinase inhibitors (TKIs); experiment: PDX of TKI-resistant lung cancer, R with osimertinib (AZD9291)
[11] = system: human pancreatic cancer cell line ASPC-1/GEM with gemcitabine resistance; experiment: GEM-resistant pancreatic cancer transplanted tumor, R with GEM and DDP
[12] = system: drug-resistant gastric cancer cells MKN45/DDP; experiment: Drug-resistant gastric cancer transplanted tumor; conditions: day 15; once a day for 3 consecutive days
[13] = system: 1:1 mixture of mouse liver cancer cells (mouse liver tumor H22 cell lines) and mouse fibroblast; experiment: DDP-insensitive liver cancer with desensitized microenvironment, R with DDP
[14] = system: paclitaxel-resistant human ovarian cancer cell strain SKOV3/TAX; experiment: TAX-resistant ovarian cancer transplanted tumor, R with TAX and 5-Fu
[15] = number of doses 1, intratumoral (group M 5-Fu intraperitoneal)

Compound: N=C(N)NCCC[C@H](N)C(=O)O
- Progression-free time (4T1 breast cancer cells): 9 days

Compound: sodium chloride
- Tissue destruction score (M) (leg muscle tissue): 0.3 points

Compound: CN(C)c1ccc2nc3ccc(=[N+](C)C)cc-3sc2c1
- Progression-free time (4T1 breast cancer cells): 9 days

Compound: NCCCC[C@H](N)C(=O)O
- Tumor weight (g, mean ±SEM) [1, 15]: 1.97 ± 0.37 g

Compound: monosodium phosphate
- Tissue destruction score (M) (leg muscle tissue): 0.7 points

Compound: sodium hydroxide
- Tumor weight (g, mean ±SEM) [1, 15]: 1.31 ± 0.53 g
- Tumor weight (g, mean ±SEM) ([1]; number of doses 6, once a day for 6 consecutive days, intratumoral): 0.34 ± 0.27 g

Compound: O=c1[nH]cc(F)c(=O)[nH]1
- morphology of cells in the tumor (pathological analysis of the tumor samples) ([2]; after administration for 1 hour): normal
- t1 pharmacological effects (results of pathological analysis) ([2]; one hour after one intratumoral injection, 500 µL per mouse, HE staining, four-level grading for lesions): -
- Tumor weight (g, mean ±SEM) [3]: 1.84 ± 0.29 g
- Progression-free time ([4]; day when RTV exceeded 150%): 3 days
- Effective time ([4]; day when T/C% less than 42%, solution I intratumoral, solution II intraperitoneal, regimen per group b765): > 15 days
- Tumor weight (g, mean ±SEM) [1, 15]: 2.16 ± 0.31 g
- t2 pharmacological effect: Tumor weight (g, mean ±SEM) [5]: 0.75±0.11 g

Compound: CCO
- Tissue destruction score (M) (leg muscle tissue): 3.6 points

Compound: O=P1(NCCCl)OCCCN1CCCl (centres unmarked)
- Tumor weight (g, average + / - SEM) ([6]; day 9): 0.83 ± 0.46 g
- Progression-free time ([6]; day when RTV > 150%, observation to day 9): 7 days
- Effective time ([6]; day when T/C % < 42%, intratumoral once a day, 3 times, 100 µL): 6 days
- Progression-free time ([7]; day when RTV > 150%, observation to day 15): 3 days
- Effective time ([7]; day when T/C % < 42%, solution I intratumoral, solution II intraperitoneal, regimen per group b736): > 15 days

Compound: CC(=O)O
- Tissue destruction score (M) (leg muscle tissue): 0.5 points

Compound: COc1cccc2c1C(=O)c1c(O)c3c(c(O)c1C2=O)C[C@@](O)(C(=O)CO)C[C@@H]3O[C@H]1C[C@H](N)[C@H](O)[C@H](C)O1
- Progression-free time ([8]; day when RTV more than 150%, observation to day 15): 3 days
- Effective time ([8]; day when T/C % less than 42%, solution I intratumoral, solution II intraperitoneal, regimen per group b750): > 15 days

Compound: COc1cc2ncnc(Nc3ccc(F)c(Cl)c3)c2cc1OCCCN1CCOCC1
- Progression-free time ([9]; day when RTV > 150%): 3 days
- Effective time ([9]; day when T/C% <42%, solution I intratumoral, II intraperitoneal, III intragastric, regimen per group b794): > 15 days

Compound: C=CC(=O)Nc1cc(Nc2nccc(-c3cn(C)c4ccccc34)n2)c(OC)cc1N(C)CCN(C)C
- Progression-free time ([10]; day when RTV >150%, observation to day 7): 0 days
- Effective time ([10]; day when T/C% <42%, solution I intratumoral day 1, 2, 3 (100µL), solution II intragastric once a day): > 7 days

Compound: Nc1ccn([C@@H]2O[C@H](CO)[C@@H](O)C2(F)F)c(=O)n1
- Progression-free time ([11]; day when RTV > 150%): 3 days
- Effective time ([11]; day when T/C% < 42%, solution I intratumoral, solution II intraperitoneal, regimen per group b771): > 15 days

Compound: cisplatin
- Tumor weight (g, mean ±SEM) [12]: 0.86 ± 0.18 g
- Progression-free time ([13]; day when RTV more than 150%): 3 days
- Effective time ([13]; day when T/C % less than 42%, solution I intratumoral, solution II intraperitoneal, regimen per group b757): > 15 days

Compound: O=C(O)O
- Tissue destruction score (M) (leg muscle tissue): 0.6 points

Compound: CC(=O)O[C@H]1C(=O)[C@@]2(C)[C@H]([C@H](OC(=O)c3ccccc3)[C@]3(O)C[C@H](OC(=O)[C@H](O)[C@@H](NC(=O)c4ccccc4)c4ccccc4)C(C)=C1C3(C)C)[C@]1(OC(C)=O)CO[C@@H]1C[C@@H]2O
- Progression-free time ([14]; day when RTV > 150%): 3 days
- Effective time ([14]; day when T/C% < 42%, solution I intratumoral, solution II intraperitoneal, regimen per group b779): > 15 days
